Assays:
[1] = target: T1, FLAG-hSIRT1-FL (full length human SIRT1, FLAG-tagged) (human, UniProt Q96EB6 1-747); test: pull-down
T1 sequence (looked up): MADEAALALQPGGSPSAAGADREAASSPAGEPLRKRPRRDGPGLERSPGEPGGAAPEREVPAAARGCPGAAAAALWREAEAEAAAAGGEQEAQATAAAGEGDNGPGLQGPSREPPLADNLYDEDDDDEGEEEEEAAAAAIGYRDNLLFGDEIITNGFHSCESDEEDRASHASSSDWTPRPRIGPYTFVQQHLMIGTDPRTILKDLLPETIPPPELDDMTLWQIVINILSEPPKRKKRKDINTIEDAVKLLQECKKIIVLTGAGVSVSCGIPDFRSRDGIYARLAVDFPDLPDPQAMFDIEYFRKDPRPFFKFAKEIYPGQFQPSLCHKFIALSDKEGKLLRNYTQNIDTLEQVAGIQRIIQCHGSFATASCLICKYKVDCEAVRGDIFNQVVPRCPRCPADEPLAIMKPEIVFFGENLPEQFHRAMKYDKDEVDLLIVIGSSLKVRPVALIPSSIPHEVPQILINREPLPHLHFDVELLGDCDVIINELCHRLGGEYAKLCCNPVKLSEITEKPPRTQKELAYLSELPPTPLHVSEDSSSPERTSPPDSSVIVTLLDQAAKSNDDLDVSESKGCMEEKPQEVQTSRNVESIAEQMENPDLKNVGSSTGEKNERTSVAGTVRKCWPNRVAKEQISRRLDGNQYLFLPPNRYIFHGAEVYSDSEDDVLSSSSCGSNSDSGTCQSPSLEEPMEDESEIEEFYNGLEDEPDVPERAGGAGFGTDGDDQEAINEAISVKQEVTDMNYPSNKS

[2] = target: T2, FLAG-hSIRT1-NT (N-terminus truncated human SIRT1 with residues 7–83 deleted, FLAG-tagged) (human, UniProt Q96EB6 1-747, residues 7–83 deleted); test: pull-down
T2 sequence (looked up): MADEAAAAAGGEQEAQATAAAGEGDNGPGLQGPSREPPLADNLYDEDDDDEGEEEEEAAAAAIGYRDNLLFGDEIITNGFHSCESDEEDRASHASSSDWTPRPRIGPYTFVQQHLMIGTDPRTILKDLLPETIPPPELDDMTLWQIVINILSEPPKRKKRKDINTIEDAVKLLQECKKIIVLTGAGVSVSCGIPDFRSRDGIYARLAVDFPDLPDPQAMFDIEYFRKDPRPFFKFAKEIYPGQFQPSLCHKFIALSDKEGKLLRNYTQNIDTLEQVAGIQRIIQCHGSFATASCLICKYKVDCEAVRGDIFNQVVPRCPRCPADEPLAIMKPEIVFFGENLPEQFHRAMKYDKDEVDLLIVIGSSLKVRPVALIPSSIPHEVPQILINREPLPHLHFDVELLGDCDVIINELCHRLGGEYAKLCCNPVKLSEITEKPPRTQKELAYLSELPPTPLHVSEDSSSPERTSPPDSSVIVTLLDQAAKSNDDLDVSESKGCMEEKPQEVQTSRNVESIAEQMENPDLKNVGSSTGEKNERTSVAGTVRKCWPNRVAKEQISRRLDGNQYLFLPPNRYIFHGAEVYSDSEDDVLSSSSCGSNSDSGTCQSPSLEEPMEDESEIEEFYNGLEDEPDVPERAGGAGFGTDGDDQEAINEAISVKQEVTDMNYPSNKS

B1: GST-hTDG-FL (human thymine DNA glycosylase, intact, GST fusion) (enzyme, UniProt Q13569 1-410, looked up)
chain: MEAENAGSYSLQQAQAFYTFPFQQLMAEAPNMAVVNEQQMPEEVPAPAPAQEPVQEAPKGRKRKPRTTEPKQPVEPKKPVESKKSGKSAKSKEKQEKITDTFKVKRKVDRFNGVSEAELLTKTLPDILTFNLDIVIIGINPGLMAAYKGHHYPGPGNHFWKCLFMSGLSEVQLNHMDDHTLPGKYGIGFTNMVERTTPGSKDLSSKEFREGGRILVQKLQKYQPRIAVFNGKCIYEIFSKEVFGVKVKNLEFGLQPHKIPDTETLCYVMPSSSARCAQFPRAQDKVHYYIKLKDLRDQLKGIERNMDVQEVQYTFDLQLAQEDAKKMAVKEEKYDPGYEAAYGGAYGENPCSSEPCGFSSNGLIESVELRGESAFSGIPNGQWMTQSFTDQIPSFSNHCGTQEQEEESHA
binding result [1]: binds | binding result [2]: binds

Source: PMC4465237 (The Biochemical journal, 2013)
